Reference: patent US20250340886A1, “INTRACELLULAR KINASE ASSOCIATED WITH RESISTANCE AGAINST ANTI-TUMOUR IMMUNE RESPONSES, AND USES THEREOF” (iOmx Therapeutics AG, priority 2017, published 2025)

System: M579-A2-luc tumour cells
Experiment: luciferase-based tumour cell viability assay, M579-A2-luc cells with inhibitor and TNF
Details: SIK1 and SIK2-knocked down M579-A2-luc cells; TNF 100 ng/mL; titrating doses

## Cc1nc(Nc2ncc(C(=O)Nc3c(C)cccc3Cl)s2)cc(N2CCN(CCO)CC2)n1 [Compound A8, N-(2-chloro-6-methylphenyl)-2-((6-(4-(2-hydroxyethyl)piperazin-1-yl)-2-methylpyrimidin-4-yl)amino)thiazole-5-carboxamide, reference compound]
  response of tumour cells to the drug (Luc CTL assay): still responded to titrating doses of dasatinib
